Data on 3 compounds can be found in ChEMBL document CHEMBL4014327 (J Med Chem, 2017).

The chains behind the UniProt entries cited, without tags or fusion partners.
UniProt Q9NWZ3, whole entry: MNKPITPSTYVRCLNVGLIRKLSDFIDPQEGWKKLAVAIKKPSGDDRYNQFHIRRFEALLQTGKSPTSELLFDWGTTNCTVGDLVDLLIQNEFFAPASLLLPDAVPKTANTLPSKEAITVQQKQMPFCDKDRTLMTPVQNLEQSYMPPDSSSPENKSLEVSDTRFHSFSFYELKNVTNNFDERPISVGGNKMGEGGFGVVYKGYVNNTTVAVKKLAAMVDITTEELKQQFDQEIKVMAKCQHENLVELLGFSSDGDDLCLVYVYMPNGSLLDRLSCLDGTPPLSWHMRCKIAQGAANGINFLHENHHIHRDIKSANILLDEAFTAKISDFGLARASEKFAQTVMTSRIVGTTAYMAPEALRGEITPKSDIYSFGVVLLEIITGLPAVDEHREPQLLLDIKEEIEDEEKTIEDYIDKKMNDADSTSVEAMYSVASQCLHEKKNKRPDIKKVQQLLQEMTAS

Test [1] has as its target T1, Interleukin-1 receptor-associated kinase 4 (Homo sapiens, UniProt Q9NWZ3). Description: Inhibition of N-terminal His6-tagged human full length IRAK4 preincubated for 20 mins followed by biotinylated-AGAGRDKYKTLRQIR substrate addition in presence of ATP measured after 60 mins by DELFIA method.
Test [2] has as its target T1, Interleukin-1 receptor-associated kinase 4. Nature of the test: Inhibition of IRAK4 in human PBMC assessed as reduction in R848-stimulated TNF alpha production after 3 hrs.

For the compound `COc1cc2c(OC[C@H]3NC(=O)[C@@]4(F)[C@@H]3[C@@H]4C)nccc2cc1C(N)=O`, the IC50 in test [1] stood at 0.6 nM.

In the case of `COc1cc2c(OC[C@@H]3CCC(=O)N3)ccnc2cc1C(N)=O`, the IC50 in test [1] was found to be 5.9 nM; in test [2], 2120 nM. On to `COc1cc2c(OC[C@H]3NC(=O)[C@@H](F)[C@H]3C)nccc2cc1C(N)=O`, for which the half-inhibitory concentration (IC50) in test [2] is 12.7 nM.

Broadly, the IC50 is the midpoint of a concentration-inhibition curve.
